Compound activity deposited in PubChem by Broad Institute.
Dyrk1A ADPGlo – Dyrk1A (rat) kinase inhibition. Q63470. ADP-Glo luminescence, NFATc1 peptide. inhibition, % at 12.5 µM. 0.43% of 310,000 active; in the data active = inhibition above about 50%;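 note: plate controls were vehicle with enzyme for no effect and no enzyme for full effect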
CAL PDZ FP-1 – blocks peptide binding to human CAL PDZ domain; inhibition, % at 20 µM; 0.02% of 330,000 active; purified CAL PDZ, TMR-peptide fluorescence polarization, 1 h; Q9HD26;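 active = highest replicate inhibition of at least 40%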;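 note: plate controls were DMSO neutral control wells for no effect and unlabeled competitor peptide control wells for full effect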
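Read-out basis: mP drop reported as inhibition | Assay system: Tagged CAL PDZ protein CerCALP, purified | Benchmarks: Unlabelled peptide for full inhibition, DMSO wells as neutral | Schedule: 1 h incubation at room temperature before polarization reading | Buffer or medium: Sodium phosphate/NaCl buffer pH 7.4 with TCEP, IgG, Thesit | Doses: Single point, 20 µM | Measured by: Fluorescence polarization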
UUG fidelity – modulators of start codon recognition fidelity in yeast | S. cerevisiae UUG-firefly luciferase reporter, luminescence/redox ratio | activity score, % at 18.7 µM | 350,000 tested, 0.13% active;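 active = replicate mean at a twofold rise or more, about +100% in these data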;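 also: firefly luciferase made from a UUG start codon reports start codon fidelity; reporter light over untreated wells divided by growth signal over untreated wells; some hits fall short of that in this replicate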
CDK5 inh – blocks human CDK5/p35 kinase activity. Recombinant CDK5/p35, ADP-Glo luminescence, 60 min. inhibition, % at 10 µM. 0.01% of 330,000 active. AID 488839;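 active = highest replicate inhibition of at least 50% and at least 75% of replicates reaching 50%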;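 note: plate controls were DMSO neutral control for no effect and GW8510 at 10 µM for full effect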
CAL PDZ FP-2 – inhibitors of human CAL PDZ peptide binding; Q9HD26; inhibition, % at 24.9 µM; AID 602252; purified CAL PDZ, TMR-peptide fluorescence polarization, 1 h; 0.92% of 300,000 active;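 active = mean inhibition of at least 30% with at least half of replicates also reaching 30%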;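 note: 0% = DMSO neutral control and 100% = excess unlabeled competitor peptide PRC23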
dFosB act – enhances mouse delta FosB homodimer DNA binding. purified delta FosB, TAMRA-CDK5 oligo fluorescence polarization; percent of positive-control signal above neutral wells. activation, % at 25 µM. 0.99% of 340,000 active. AID 493131;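 active = mean activation above about 17%, with every replicate also reaching it, limit read from the data, passing the limit was not always enough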
* marks the source's active call; other numbers are inactive results. In the library only some 1.7% were active in any assay of this set; here they are far more common.

What do the screens show for `CCS(=O)(=O)c1nc(S(=O)(=O)c2ccc(C)cc2)c(N2CCC3(CC2)OCCO3)s1`?
Dyrk1A ADPGlo: 1.5; CAL PDZ FP-1: -0.3; UUG fidelity: 47.7; CDK5 inh: 0.0; CAL PDZ FP-2: -2.7; dFosB act: -11.6

Results for Cc1nn(C(C)C(=O)NCc2ccccc2Cl)c(=O)c2c1sc1ccccc12 (configuration not stated) ?
Dyrk1A ADPGlo: 1.2; CAL PDZ FP-1: -0.5; UUG fidelity: -10.5; CDK5 inh: -0.3; CAL PDZ FP-2: 69.7*; dFosB act: -0.5

How did Cc1nn(C(C)C(=O)NCCCN2CCCCCC2)c(=O)c2c1sc1ccccc12 (configuration not stated) do in these assays?
Dyrk1A ADPGlo: -0.8; CAL PDZ FP-1: -1.9; UUG fidelity: -2.5; CDK5 inh: 1.3; CAL PDZ FP-2: 2.8; dFosB act: -4.1

What do the screens show for `CN(C)CCCNC(=O)/C(=C\c1ccc(-c2cccc([N+](=O)[O-])c2)o1)NC(=O)c1ccccc1`?
Dyrk1A ADPGlo: 10.4; CAL PDZ FP-1: -1.0; CDK5 inh: 0.4; CAL PDZ FP-2: -3.6; dFosB act: 14.7

What do the screens show for `CN(C)CCNC(=O)/C(=C/c1ccc(-c2ccc(Cl)cc2)o1)NC(=O)c1ccccc1`?
Dyrk1A ADPGlo: 4.9; CAL PDZ FP-1: -1.3; UUG fidelity: 13.4; CDK5 inh: 1.4; CAL PDZ FP-2: 1.3; dFosB act: 19.7*

What do the screens show for `CN(C)CCNC(=O)/C(=C/c1ccc(-c2ccc(Cl)cc2Cl)o1)NC(=O)c1ccccc1`?
Dyrk1A ADPGlo: 14.5; CAL PDZ FP-1: -3.6; CDK5 inh: 0.5; CAL PDZ FP-2: -10.8; dFosB act: 34.7*

What do the screens show for `CC(C)C#Cc1cnc2c(c1)C(=O)N([C@H](C)CO)C[C@@H](C)[C@@H](CN(C)C(=O)Nc1ccc(F)cc1)O2`?
UUG fidelity: 1.8

How did COc1ccc(NC(=O)N(C)C[C@@H]2Oc3c(NC(=O)C4CC4)cccc3C(=O)N([C@@H](C)CO)C[C@H]2C)cc1 do in these assays?
UUG fidelity: 1.4

What do the screens show for `COCC#Cc1ccc2c(c1)O[C@@H](CN(C)C(=O)Nc1ccc(OC)cc1)[C@@H](C)CN([C@H](C)CO)S2(=O)=O`?
UUG fidelity: -2.5

What do the screens show for `Cc1ccc2cccc(OCc3cccc([N+](=O)[O-])c3)c2n1`?
Dyrk1A ADPGlo: 4.9; UUG fidelity: -7.5; CDK5 inh: 0.7; CAL PDZ FP-2: 61.2*; dFosB act: -5.5

How did COc1ccc(C(CNC(=O)COc2ccc(-c3ccccc3)cc2)N2CCOCC2)cc1 (configuration not stated) do in these assays?
Dyrk1A ADPGlo: -3.1; CAL PDZ FP-1: -2.6; UUG fidelity: -3.8; CDK5 inh: 0.3; CAL PDZ FP-2: -2.4; dFosB act: -20.8

What do the screens show for `COc1ccc(C(CNC(=O)COc2c(C)cc(C)cc2C)N2CCOCC2)cc1` (configuration not stated)?
Dyrk1A ADPGlo: -3.1; CAL PDZ FP-1: -0.4; UUG fidelity: -9.4; CDK5 inh: -2.4; CAL PDZ FP-2: 67.7*; dFosB act: -0.8

What do the screens show for `Cc1ccc(CNC(=O)C(=O)NCC2OCCN2C(=O)c2ccc3c(c2)OCO3)cc1` (configuration not stated)?
Dyrk1A ADPGlo: 0.6; CAL PDZ FP-1: -1.0; UUG fidelity: -14.1; CDK5 inh: 0.3; CAL PDZ FP-2: -3.3; dFosB act: 16.9*

Results for COc1ccc(C(=O)N2CCOC2CNC(=O)C(=O)NCc2ccc3c(c2)OCO3)cc1 (configuration not stated) ?
CAL PDZ FP-1: -0.2; CDK5 inh: 0.0; CAL PDZ FP-2: -4.3; dFosB act: 0.1

How did COc1ccc(NC(=O)Nc2ccc3c(c2)C(=O)N([C@@H](C)CO)C[C@@H](C)[C@H](CN(C)C(=O)NC2CCCCC2)OCCCC[C@@H](C)O3)cc1 do in these assays?
UUG fidelity: 4.7

Results for O=C(O)C[C@H]1CC[C@H](NC(=O)Nc2ccccc2)[C@H](CO)O1 ?
UUG fidelity: 2.4

How did S=C(NCc1ccccc1)NNc1ccccc1 do in these assays?
Dyrk1A ADPGlo: 1.4; CAL PDZ FP-1: -1.1; CDK5 inh: -1.0; CAL PDZ FP-2: 58.3*; dFosB act: -5.2

What do the screens show for `S=C(NCc1ccccc1)NCc1ccccc1`?
Dyrk1A ADPGlo: -4.2; CAL PDZ FP-1: -2.9; UUG fidelity: -35.1; CDK5 inh: 1.5; CAL PDZ FP-2: -0.9; dFosB act: -0.3

How did O=C(Cn1cc(CN2C(=O)COC[C@H]2c2ccccc2)nn1)Nc1nccs1 do in these assays?
UUG fidelity: 34.5

Results for CC(=O)c1sc(-c2ccc(Cl)cc2)cc1N ?
Dyrk1A ADPGlo: 5.2; CAL PDZ FP-1: 0.4; CDK5 inh: -0.3; CAL PDZ FP-2: -3.7; dFosB act: -5.6

What do the screens show for `COC(=O)c1sc(-c2ccc(Cl)cc2)cc1N`?
CAL PDZ FP-1: -0.1; UUG fidelity: -2.5; CDK5 inh: 1.0; CAL PDZ FP-2: 55.1*; dFosB act: -6.3

How did C[C@@H]1CN([C@H](C)CO)C(=O)c2cc(NC(=O)CCC(F)(F)F)ccc2O[C@H]1CN(C)S(=O)(=O)c1ccccc1 do in these assays?
UUG fidelity: 12.2

What do the screens show for `CCN(CC)S(=O)(=O)c1ccc(NC(=S)NC(=O)CC(C)C)cc1`?
Dyrk1A ADPGlo: -4.3; CAL PDZ FP-1: -2.1; CDK5 inh: -1.6; CAL PDZ FP-2: 111.9*; dFosB act: -17.0

What do the screens show for `Cc1cc(NC(=O)CSc2nnc(-c3ccncc3)n2C)n(-c2ccccc2)n1`?
CAL PDZ FP-1: 0.3; CDK5 inh: 1.1; CAL PDZ FP-2: 77.4*; dFosB act: 3.5

Structures shown so far containing a nitro group on carbon:
What do the screens show for `CN(C)CCCNC(=O)/C(=C\c1ccc(-c2cccc([N+](=O)[O-])c2)o1)NC(=O)c1ccccc1`?
Dyrk1A ADPGlo: 10.4; CAL PDZ FP-1: -1.0; CDK5 inh: 0.4; CAL PDZ FP-2: -3.6; dFosB act: 14.7

What do the screens show for `Cc1ccc2cccc(OCc3cccc([N+](=O)[O-])c3)c2n1`?
Dyrk1A ADPGlo: 4.9; UUG fidelity: -7.5; CDK5 inh: 0.7; CAL PDZ FP-2: 61.2*; dFosB act: -5.5

Next part.
What do the screens show for `Cc1cc(NC(=O)CSc2nnc(-c3ccncc3)n2Cc2ccccc2)n(-c2ccccc2)n1`?
CAL PDZ FP-1: -0.4; CDK5 inh: 0.8; CAL PDZ FP-2: 5.9; dFosB act: -8.3

Results for Cc1ccc(S(=O)(=O)N(C)C[C@@H]2Oc3ccc(NS(=O)(=O)c4ccccc4)cc3C(=O)N([C@@H](C)CO)C[C@H]2C)cc1 ?
UUG fidelity: 7.2

Results for O=C(NNc1ccccc1)/C(=C\c1cccnc1)NC(=O)c1ccccc1 ?
Dyrk1A ADPGlo: 1.5; CAL PDZ FP-1: -0.3; CDK5 inh: -0.1; CAL PDZ FP-2: 73.1*; dFosB act: -1.6

What do the screens show for `COc1ccc(NC(=S)NC(=O)C2CCCCC2)cc1`?
Dyrk1A ADPGlo: 3.0; CAL PDZ FP-1: 0.4; UUG fidelity: -9.4; CDK5 inh: 1.9; CAL PDZ FP-2: 0.3; dFosB act: -3.6

How did CCCCCOc1ccc(C(=O)Nc2ccc(N3CCOCC3)cc2N2CCOCC2)cc1 do in these assays?
Dyrk1A ADPGlo: 2.6; CAL PDZ FP-1: -1.1; UUG fidelity: -11.9; CDK5 inh: -0.8; CAL PDZ FP-2: 44.6*; dFosB act: 7.1

Ordered by length of the SMILES (ascending): some entries from above
What do the screens show for `COc1ccc(NC(=S)NC(=O)C2CCCCC2)cc1`?
Dyrk1A ADPGlo: 3.0; CAL PDZ FP-1: 0.4; UUG fidelity: -9.4; CDK5 inh: 1.9; CAL PDZ FP-2: 0.3; dFosB act: -3.6

Results for O=C(NNc1ccccc1)/C(=C\c1cccnc1)NC(=O)c1ccccc1 ?
Dyrk1A ADPGlo: 1.5; CAL PDZ FP-1: -0.3; CDK5 inh: -0.1; CAL PDZ FP-2: 73.1*; dFosB act: -1.6

How did CCCCCOc1ccc(C(=O)Nc2ccc(N3CCOCC3)cc2N2CCOCC2)cc1 do in these assays?
Dyrk1A ADPGlo: 2.6; CAL PDZ FP-1: -1.1; UUG fidelity: -11.9; CDK5 inh: -0.8; CAL PDZ FP-2: 44.6*; dFosB act: 7.1
